Experimental data from patent publication US5011930A, “Quinoline type mevalonolactones” (Nissan Chemical Industries Ltd., priority 1987, dated 1991).

Test system: cholesterol biosynthesis in Hep G2 cells
Assay: Test B-1: Inhibition of cholesterol biosynthesis in culture cells (Hep G2)
Assay type: cell-based
Settings: Homo sapiens, HepG2, [2-^14 C]sodium acetate added at 0 hr after addition of compounds, 4 hrs incubation, read-out: Inhibitory activities by Test B-1: I50 (molar concentration)
Description: Hep G2 cells at over 5th passage were seeded to 12 well plates and incubated with Dulbecco's modified Eagle (DME) medium containing 10% of fetal bovine serum (FBS) at 37° C., 5% CO2 until cells were confluent for about 7 days. Cells were exposed to the DME medium containing 5% of lipoprotein deficient serum (LpDS) prepared by ultracentrifugation method for over 24 hours. Medium was changed to 0.5 ml of fresh 5% LpDS containing DME before assay and 10 μl of test compound solution dissolved in water or DMSO were added. 0.2 μCi of [2-^14 C]sodium acetate (20 μl) was added at 0 hr(B-1) or 4 hrs(B-2) after addition of compounds. After 4 hrs further incubation with [2-^14 C]sodium acetate, medium was removed and cells were washed with phosphate buffered saline(PBS) chilled at 4° C. Cells were scraped with rubber policeman and collected to tubes with PBS and digested with 0.2 ml of 0.5 N KOH at 37° C. Aliquot of digestion was used for protein analysis and remaining was saponified with 1 ml of 15% EtOH--KOH at 75° C. for 1 hour. […] Counts were revised by cell protein and indicated with DPM/mg protein. Inhibitory activity of compounds was indicated with IC50.

## CC[C@H](C)C(=O)O[C@H]1C[C@H](O)C=C2C=C[C@H](C)[C@H](CC[C@@H](O)C[C@@H](O)CC(=O)O)[C@H]21 [CS-514, reference compound]
  IC50: 350 nM
